Values of other authors in patent publication US20110268822A1, “METHODS FOR SYNTHESIZING KOTALANOL AND STEREOISOMERS AND ANALOGUES THEREOF, AND NOVEL COMPOUNDS PRODUCED THEREBY” (SIMON FRASER UNIVERSITY, priority 2008, published 2011).

Sequences of proteins named here, by UniProt entry; tags and fusion partners are left off. Residues count along the entry.
UniProt O43451, 87-954 limits assumed: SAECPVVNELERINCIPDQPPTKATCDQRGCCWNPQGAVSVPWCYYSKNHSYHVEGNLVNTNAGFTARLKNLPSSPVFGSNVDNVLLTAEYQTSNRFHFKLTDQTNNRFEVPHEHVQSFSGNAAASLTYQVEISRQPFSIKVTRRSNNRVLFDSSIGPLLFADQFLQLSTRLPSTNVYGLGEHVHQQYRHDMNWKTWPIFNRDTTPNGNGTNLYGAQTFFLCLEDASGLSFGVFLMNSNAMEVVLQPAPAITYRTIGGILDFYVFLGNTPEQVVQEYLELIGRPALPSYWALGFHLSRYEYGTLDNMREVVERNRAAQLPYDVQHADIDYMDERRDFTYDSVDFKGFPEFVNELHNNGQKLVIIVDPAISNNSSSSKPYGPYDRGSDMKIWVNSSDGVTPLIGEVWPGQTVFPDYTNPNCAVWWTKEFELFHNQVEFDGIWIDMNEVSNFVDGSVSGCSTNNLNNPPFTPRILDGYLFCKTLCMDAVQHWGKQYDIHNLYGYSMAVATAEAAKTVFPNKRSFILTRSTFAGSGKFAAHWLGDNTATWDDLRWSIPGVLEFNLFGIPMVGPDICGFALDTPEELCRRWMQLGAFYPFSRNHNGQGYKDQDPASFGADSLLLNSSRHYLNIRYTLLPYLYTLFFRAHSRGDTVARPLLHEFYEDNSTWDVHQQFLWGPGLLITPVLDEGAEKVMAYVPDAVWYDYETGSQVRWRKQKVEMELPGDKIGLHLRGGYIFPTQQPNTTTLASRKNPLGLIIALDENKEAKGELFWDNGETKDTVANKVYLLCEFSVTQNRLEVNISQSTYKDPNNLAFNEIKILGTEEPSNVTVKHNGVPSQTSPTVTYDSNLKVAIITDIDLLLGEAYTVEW

Biological target: recombinant human maltase glucoamylase (MGA) (Homo sapiens, UniProt O43451)
Conditions: maltose as the substrate; NA: not active; values from the inventors' earlier publications; cited from earlier work
For `O=S(=O)([O-])OC(C(O)C[Se+]1CC(O)C(O)C1CO)C(O)C(O)CO` (stereo not drawn) [Compound 9], the Ki is given as 100 ± 20 nM. For `O=S(=O)([O-])OC(C(O)C[Se+]1CC(O)C(O)C1CO)C(O)C(O)CO` (stereo not drawn) [Compound 15], the Ki is listed as 140 nM. For `O=S(=O)([O-])OC(C(O)C[Se+]1CC(O)C(O)C1CO)C(O)C(O)CO` (stereo not drawn) [Compound 11], the Ki is listed as 100 nM.
